# Columns and labels:
# Sequences of proteins named here, by UniProt entry; tags and fusion partners are left off.
# UniProt O94782, whole entry G670A/G671A: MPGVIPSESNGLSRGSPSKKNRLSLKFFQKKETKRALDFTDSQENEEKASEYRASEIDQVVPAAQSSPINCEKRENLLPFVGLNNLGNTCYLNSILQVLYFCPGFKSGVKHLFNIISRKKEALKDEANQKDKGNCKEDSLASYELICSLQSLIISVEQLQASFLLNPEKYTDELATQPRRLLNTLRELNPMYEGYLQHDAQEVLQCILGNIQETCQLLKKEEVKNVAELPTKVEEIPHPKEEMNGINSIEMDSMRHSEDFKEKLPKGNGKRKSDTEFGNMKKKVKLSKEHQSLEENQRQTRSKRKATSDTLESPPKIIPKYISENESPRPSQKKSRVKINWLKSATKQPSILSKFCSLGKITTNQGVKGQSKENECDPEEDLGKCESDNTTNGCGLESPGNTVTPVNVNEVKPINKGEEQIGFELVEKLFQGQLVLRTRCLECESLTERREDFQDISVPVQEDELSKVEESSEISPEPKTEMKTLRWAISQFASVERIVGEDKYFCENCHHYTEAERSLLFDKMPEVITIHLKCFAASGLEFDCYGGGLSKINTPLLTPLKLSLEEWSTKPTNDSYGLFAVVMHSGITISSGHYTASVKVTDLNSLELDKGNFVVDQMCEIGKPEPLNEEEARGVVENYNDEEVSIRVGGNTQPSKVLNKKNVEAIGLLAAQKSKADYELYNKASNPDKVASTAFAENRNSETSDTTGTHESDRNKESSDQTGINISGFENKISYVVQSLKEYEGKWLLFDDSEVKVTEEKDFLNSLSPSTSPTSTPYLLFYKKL
# [1] = target: T1, USP1/UAF1 complex (Homo sapiens, UniProt O94782, G670A/G671A); experiment: ubiquitin-AMC in vitro deubiquitination enzyme assay; format: biochemical; settings: 25 nM
# T1 construct: This modified full length USP1 clone was PCR amplified and subcloned into pFastBac-HT vectors; His tag (N); made in house; host or cells: Sf9 insect cells (baculovirus)
# Description: Purified USP1/UAF1 complex was incubated with 1 μM C527 or DMSO for indicated time, followed by the addition of Ub-AMC at 0.5 μM final concentration. The fluorescence at […] was measured to indicate the enzymatic activity of USP1. […] 5A.
# The in vitro enzymatic assays were performed using purified proteins from Sf9 cells as described previously (Cohn et al.). The assays using ubiquitin-AMC (Ub-7-amido-4-methylcoumarin; Boston Biochem) as substrate was carried out in a reaction buffer containing 20 mM HEPES-KOH (pH 7.8), 20 mM NaCl, 0.1 mg/ml ovalbumin, 0.5 mM EDTA and 10 mM dithiothreitol. The fluorescence was measured by FluoStar Galaxy Fluorometer (BMG Labtech). For the Ub-vinylsulfone (VS) assay, the proteins were incubated with Ub-VS at 0.5 μM final concentration for 1 h at 30° C., followed by the immunoblotting analysis.
# In order to develop a highly sensitive assay with easy readout for high throughput detection, the fluorogenic compound Ubiquitin-7-amido-4-methylcoumarin (AMC-Ub, Boston Biochem) was used as a substrate for USP1/UAF1 enzyme complex. USP1 catalyzes the cleavage of AMC-Ub, releasing free AMC moiety, which leads to increase in fluorescence emission at 460 nm (λex=380 nm). […] Fluorescence was measured using a Fluostar Galaxy Fluorometer (BMG Labtech Inc.).
# Hits from the initial screening were analyzed further in secondary screening. […]
# [2] = target: T2, USP1 (Homo sapiens, UniProt O94782); experiment: Ub-vinyl sulfone conjugation of USP1 in lysates of compound-treated HeLa cells; format: cell-based; settings: 50 μM inhibitor for 2, 4, or 6 hours, lysates with Ub-Vs 40 minutes, FIG. 2
# T2 construct: endogenous in cells; host or cells: HeLa
# Description: In one set of experiments, HeLa cells were incubated in the presence of 50 μM of selected inhibitors including the compound of Formula III (933) and the compound of Formula IV (527) for 2, 4, or 6 hours, followed by cell lysis. Ub-aldehyde (Ub-Ald, a known USP1 inhibitor) was used as a positive control, and dimethysulfoxide (DMSO) was used as a negative control. Lysates were incubated with the Ub-vinyl sulfone (Ub-Vs) reagent for 40 minutes. Proteins were electrophoresed on SDS-PAGE, transferred to nitrocellulose, and immunoblotted with the anti-USP1 antibody.
# HeLa cells were incubated with the compound of Formula IV (527) for eight hours, followed by cell lysis and incubation of protein extract with Ub-vinyl sulfone.
substance,measurement,setting,value
Ub-aldehyde [reference compound],enzyme activity of USP1/UAF1 complex upon incubation,[1],sharp decrease in enzyme activity
same,Ub-Vs conjugation of USP1 / deubiquitinase activity,[2],blocked Ub-Vs conjugation of USP1

# From patent publication US10653676B2 (Dana-Farber Cancer Institute, Inc., priority 2010, dated 2020)
